Assay results as given in patent US10745401B2, “Condensed lactam derivative” (Sumitomo Dainippon Pharma Co., Ltd., priority 2018, dated 2020).

By UniProt entry, the sequences of proteins in these tests, tags left out.
UniProt P28223, whole entry: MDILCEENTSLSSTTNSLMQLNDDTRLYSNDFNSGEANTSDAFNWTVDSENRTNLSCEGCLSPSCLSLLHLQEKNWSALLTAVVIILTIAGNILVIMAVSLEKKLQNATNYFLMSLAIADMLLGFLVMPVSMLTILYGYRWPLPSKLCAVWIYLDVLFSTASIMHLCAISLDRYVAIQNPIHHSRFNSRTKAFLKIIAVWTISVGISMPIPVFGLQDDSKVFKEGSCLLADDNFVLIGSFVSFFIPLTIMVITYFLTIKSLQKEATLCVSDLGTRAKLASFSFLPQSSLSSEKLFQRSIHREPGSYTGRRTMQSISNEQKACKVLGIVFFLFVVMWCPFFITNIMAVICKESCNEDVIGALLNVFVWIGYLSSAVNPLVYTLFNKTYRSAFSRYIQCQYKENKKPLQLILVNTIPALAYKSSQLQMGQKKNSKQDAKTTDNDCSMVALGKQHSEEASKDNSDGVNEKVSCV
UniProt P08908, whole entry: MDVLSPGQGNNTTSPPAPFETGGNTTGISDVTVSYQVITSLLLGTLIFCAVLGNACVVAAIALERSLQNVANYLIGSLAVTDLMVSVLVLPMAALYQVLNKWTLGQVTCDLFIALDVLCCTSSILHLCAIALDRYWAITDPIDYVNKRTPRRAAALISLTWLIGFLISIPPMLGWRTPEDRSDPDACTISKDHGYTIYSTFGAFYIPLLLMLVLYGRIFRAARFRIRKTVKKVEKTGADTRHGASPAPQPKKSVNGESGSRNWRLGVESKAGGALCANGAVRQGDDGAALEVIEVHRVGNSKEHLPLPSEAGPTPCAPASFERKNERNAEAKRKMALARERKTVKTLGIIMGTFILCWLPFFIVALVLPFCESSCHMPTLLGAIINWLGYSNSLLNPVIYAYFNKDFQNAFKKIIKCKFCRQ

Tests used:
[1] = biological target: human 5-HT2A receptor (Homo sapiens (Human), UniProt P28223); test: Test 3: antagonist activity for human 5-HT2A receptor (aequorin luminescence, CHO-K1 cells); format: cell-based; details: 1 nmol/L 5-HT
Protocol: Test 3: Evaluation of Antagonist Activity for Human 5-HT2A Receptor
Aequorin, Gα16 protein, and each receptor were transiently expressed in CHO-K1 cells (Chinese hamster ovary). […] Each compound dissolved in DMSO was added thereto, and changes in luminescence were measured by FDSS/μCELL functional drug screening system (Hamamatsu Photonics K.K.). Antagonist activity was calculated from the following formula. Antagonist activity (%)=100×{(Luminescence of well in the presence of 1 nmol/L 5-HT−Luminescence of well containing solvent)−(Luminescence of well in the presence of test compound and 1 nmol/L 5-HT−Luminescence of well containing solvent)}/(Luminescence of well in the presence of 1 nmol/L 5-HT−Luminescence of well containing solvent)

[2] = biological target: human 5-HT1A receptor (Homo sapiens (Human), UniProt P08908); test: Test 2: agonist activity for human 5-HT1A receptor ([35S]GTPγS binding); format: biochemical; details: concentration at which half the activity of Emax was obtained
Protocol: Test 2: Evaluation of Agonist Activity for Human 5-HT1A Receptor
CHO cell membrane fraction in which human 5-HT1A receptor was expressed as used in Test 1 was purchased. To a buffer containing guanosine diphosphate were added a test compound dissolved in DMSO, each receptor membrane sample diluted with buffer, and [^35S] Guanosine 5′-O-[gamma-thio]triphosphate (GTPγS). The mixture was incubated at room temperature for 60 minutes. Then, the mixture was added quickly on a glassfiber filter plate (Multiscreen FB, Millipore, Inc.), and vacuum-filtered. Radioactivity remaining on the […] was measured with a liquid scintillation counter. Agonist activity was calculated from the following formula.

Row | EC50 [2] [nM] | SMILES | IC50 [1] [nM]
1 | – | O=C1c2cccnc2CCN1CCN1CCN(c2nsc3ccccc23)CC1 [Example 9] | 2.64
2 | 19.3 | Cn1cc2c(n1)C(=O)N(CCN1CCC(c3noc4ccccc34)CC1)CCC2 [Example 48] | –
3 | 47.1 | Cn1cc2c(n1)CCN(CCN1CCC(c3noc4ccccc34)CC1)C2=O [Example 17] | –
